This is an account of results in patent US20040176431A1, “Antiproliferative 2-(sulfo-phenyl)-aminothiazole derivatives and pharmaceutical compositions, and methods for their use” (Pfizer, Inc., priority 2003, published 2004).

Amino acid sequences for entries named in this document (tags omitted). Residues count along the entry.
UniProt P11802, whole entry: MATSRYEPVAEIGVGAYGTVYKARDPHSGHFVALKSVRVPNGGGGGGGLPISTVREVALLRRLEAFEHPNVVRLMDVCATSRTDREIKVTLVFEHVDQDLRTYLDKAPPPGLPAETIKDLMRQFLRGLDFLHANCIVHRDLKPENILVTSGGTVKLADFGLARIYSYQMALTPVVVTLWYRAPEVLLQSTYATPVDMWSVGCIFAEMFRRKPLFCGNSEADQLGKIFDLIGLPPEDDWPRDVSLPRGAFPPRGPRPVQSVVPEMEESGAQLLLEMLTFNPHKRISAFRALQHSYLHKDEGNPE
UniProt P30281, 1-264 partner limits assumed: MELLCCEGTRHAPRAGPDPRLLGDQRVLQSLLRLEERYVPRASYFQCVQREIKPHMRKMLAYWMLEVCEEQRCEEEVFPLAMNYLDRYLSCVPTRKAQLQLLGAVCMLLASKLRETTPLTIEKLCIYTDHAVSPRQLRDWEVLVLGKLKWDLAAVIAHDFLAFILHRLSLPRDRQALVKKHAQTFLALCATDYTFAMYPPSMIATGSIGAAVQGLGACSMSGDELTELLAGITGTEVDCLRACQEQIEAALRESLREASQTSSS

The subject of assay [1] is HCT-116 cells. The assay can be described thus: Inhibition of cell growth (MTT tetrazolium salt assay). The conditions noted are these: read-out: HCT116 IC50, 50% inhibition of growth, first value of cell. How it is done: Inhibition of cell growth was measured using the tetrazolium salt assay, which is based on the ability of viable cells to reduce 3-(4,5-dimethylthiazol-2-yl)-2,5-[2H]-diphenyltetrazolium bromide (MTT) to formazan (Mosmann, J. Immunol. Meth., 65, 55-63 (1983)). The water-insoluble purple formazan product was then detected spectrophotometrically. HCT-116 cells were grown in 96-well plates. Cells were plated in the appropriate medium at a volume of 135 μl/well in either McCoy's 5A Medium. Plates were incubated for four hours before addition of inhibitor compounds. Different concentrations of inhibitor compounds were added in 0.5% (v/v) dimethylsulfoxide (15 μL/well), and cells were incubated at 37° C. (5% CO2) for four to six days (depending on cell type). At the end of the incubation, MTT was added to a final concentration of 0.2 mg/mL, and cells were incubated for 4 hours more at 37° C. After centrifugation of the plates and removal of medium, the absorbance of the formazan (solubilized in dimethylsulfoxide) was measured at 540 nm. The concentration of inhibitor compound causing 50%(IC50) or 90%(IC50) inhibition of growth was determined from the linear portion of a semi-log plot of inhibitor concentration versus percentage inhibition. All results were compared to control cells treated only with 0.5% (v/v) dimethylsulfoxide.
Background: Formazan colour is commonly taken as a measure of viable cells.

The target of assay [2] is CDK4/cyclin D3 (Homo sapiens, UniProt P11802). The assay can be described thus: Inhibition of CDK4/Cyclin D retinoblastoma kinase activity. The note with it: read-out: Ki CDK4/D3; apparent Ki, Rb fragment substrate.

Where only a bound is given, the exact number is not on record here.

With `Nc1nc(Nc2ccc(S(=O)(=O)NCC3CCNCC3)cc2)sc1C(=O)c1c(F)cccc1F`, the concentration for half-maximal inhibition (IC50) (commonly the point on the concentration scale where inhibition reaches its midpoint) in assay [1] was above 25000 nM.
Take `Cc1cc(C(=O)c2sc(Nc3ccc(S(N)(=O)=O)cc3)nc2N)c(C)s1`: the Ki in assay [2] was found to be 5.5 nM. For the same compound, the half-inhibitory concentration (IC50) in assay [1] is 610 nM.
